Data published in PubChem BioAssay AID624151 (Broad Institute, 2012).
The entries are a selection whose mix differs from that of the whole data set. Activity calls are given as the source filed them. No stated cut-off is given here; in the data, active means activation above about 52%; inconclusive means no clear call, values can overlap the other calls; inactive means below that.

Assay: mutant p53 pathway re-activators, primary screen, cell-based, SW480, luciferase, single point, HTS (AID 624151)
Details: SW480 PUMA-promoter luciferase, p53 mutant reactivation; at 9.98 µM; hits give high values

SMILES | activation
CN(C(=O)Cc1ccc(Cl)c(Cl)c1)C1CCCCC1N1CCCC1 (stereo unspecified) | inactive: 4.04%
